Three molecules from ChEMBL document CHEMBL4138076, “Methyllysine binding domains: Structural insight and small molecule probe development” (Eur J Med Chem, 2017) can be followed below.

The chains behind the UniProt entries cited, without tags or fusion partners.
UniProt O75530, whole entry: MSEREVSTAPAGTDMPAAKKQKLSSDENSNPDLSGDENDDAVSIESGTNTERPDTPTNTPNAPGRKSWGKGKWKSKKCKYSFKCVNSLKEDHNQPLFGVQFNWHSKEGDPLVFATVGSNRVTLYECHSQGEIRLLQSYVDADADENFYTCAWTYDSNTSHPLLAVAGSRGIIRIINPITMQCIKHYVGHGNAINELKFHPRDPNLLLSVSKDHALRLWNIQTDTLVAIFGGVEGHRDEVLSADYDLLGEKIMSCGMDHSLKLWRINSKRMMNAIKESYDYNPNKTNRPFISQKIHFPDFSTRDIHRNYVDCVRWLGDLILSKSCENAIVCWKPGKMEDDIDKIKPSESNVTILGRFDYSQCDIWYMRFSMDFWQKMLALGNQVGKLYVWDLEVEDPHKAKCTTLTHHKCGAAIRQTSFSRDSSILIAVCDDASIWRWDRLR

In assay [1] the target is T1, E3 SUMO-protein ligase CBX4 (Homo sapiens, UniProt O00257).
T1 sequence (O00257 whole entry): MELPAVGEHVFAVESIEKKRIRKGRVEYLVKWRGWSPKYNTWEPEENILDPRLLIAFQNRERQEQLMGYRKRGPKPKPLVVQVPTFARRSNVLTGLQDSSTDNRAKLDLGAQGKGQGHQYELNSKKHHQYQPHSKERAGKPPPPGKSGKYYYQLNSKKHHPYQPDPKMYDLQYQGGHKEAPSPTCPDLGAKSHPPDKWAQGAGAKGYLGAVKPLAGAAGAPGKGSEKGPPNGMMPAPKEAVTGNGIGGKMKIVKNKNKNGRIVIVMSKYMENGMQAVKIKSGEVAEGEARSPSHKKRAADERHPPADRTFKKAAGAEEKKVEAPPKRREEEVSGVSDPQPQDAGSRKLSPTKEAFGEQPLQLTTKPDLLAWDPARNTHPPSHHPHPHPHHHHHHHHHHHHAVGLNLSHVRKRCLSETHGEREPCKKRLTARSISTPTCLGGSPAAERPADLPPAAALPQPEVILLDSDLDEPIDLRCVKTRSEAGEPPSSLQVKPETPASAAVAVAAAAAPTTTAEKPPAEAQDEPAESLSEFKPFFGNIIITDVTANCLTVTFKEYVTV
Put plainly: Binding affinity to Cbx4 (unknown origin) by ITC method. (In general: ITC needs no label: the signal is the heat of the interaction.)

Assay [2] deals with Polycomb protein EED (Homo sapiens, UniProt O75530). As to the kind of experiment: Inhibition of full length N-terminal His-tagged EED (unknown origin) expressed in Rosetta2 BL21(DE3)pLysS cells after 30 mins by 3-FAM labelled fluorescence polarization assay. A general note: Fluorescence polarisation rises when a labelled molecule tumbles more slowly, as on binding a larger partner.

The term Kd denotes the constant that tells how readily two partners part at equilibrium. With `CCN(CC)CCCC[C@H](NC(=O)[C@H](CC(C)C)NC(=O)[C@H](C)NC(=O)[C@H](Cc1ccccc1)NC(=O)c1ccc(C(C)(C)C)cc1)C(=O)N[C@@H](CO)C(=O)OC`, the Kd in assay [1] is 97 nM.

The IC50 is the concentration that inhibits the measured activity by half. `CC(C)C[C@H](NC(=O)[C@H](Cc1ccccc1)NC(=O)[C@H](CCCC[N+](C)(C)C)NC(=O)[C@H](CO)NC(=O)[C@@H]1CCCN1)C(N)=O` gave an IC50 in assay [2] of 1650 nM.

Turning to `CC(C)N(C)CCCC[C@H](NC(=O)[C@@H]1C[C@@H]2CCCC[C@@H]2N1)C(=O)N[C@@H](Cc1ccccc1)C(=O)N1CCCCC1`, the IC50 in assay [2] stood at 3870 nM.
